Results as given in ChEMBL document CHEMBL1141879, “Alkylamino derivatives of 4-aminomethylpyridine as inhibitors of copper-containing amine oxidases” (J Med Chem, 2005).

Chains of the proteins cited; added tags and fusions are not shown.
UniProt P19643, whole entry: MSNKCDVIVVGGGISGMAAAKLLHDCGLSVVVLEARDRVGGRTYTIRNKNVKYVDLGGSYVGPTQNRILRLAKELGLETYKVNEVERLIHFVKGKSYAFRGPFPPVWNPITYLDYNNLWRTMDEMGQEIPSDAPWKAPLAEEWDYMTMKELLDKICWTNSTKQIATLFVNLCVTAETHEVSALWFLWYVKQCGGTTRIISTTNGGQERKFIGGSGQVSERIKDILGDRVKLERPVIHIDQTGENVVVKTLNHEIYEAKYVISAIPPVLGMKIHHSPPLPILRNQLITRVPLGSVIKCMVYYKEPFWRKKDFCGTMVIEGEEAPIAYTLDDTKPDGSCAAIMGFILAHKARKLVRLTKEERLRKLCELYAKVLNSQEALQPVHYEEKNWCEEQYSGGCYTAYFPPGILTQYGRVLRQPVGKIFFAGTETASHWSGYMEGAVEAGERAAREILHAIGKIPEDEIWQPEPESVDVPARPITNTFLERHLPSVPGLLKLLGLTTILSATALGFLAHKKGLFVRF

Target: Amine oxidase [flavin-containing] B (Rattus norvegicus, UniProt P19643)
Test: Inhibitory concentration for rat liver Monoamine oxidase B using beta-phenylethylamine

Q: How did the IC50 turn out when `Cl.Cl.NCc1c(OCCCCO)cncc1OCCCCO` was run?
A: Its IC50 is over 1000 µM.
